Test system: DLD-1 BRCA2KO cells
Assay: Combination viability assay (CTG, Bliss synergy)
Format: cell-based
Conditions: 7 days
Protocol: For combination analysis, cells were seeded in 70 μl of media in 384-well plates pre-dosed with compounds (5-point dose–response matrix) with a D300e digital dispenser (Tecan). Cell proliferation was determined after 7 days using CTG. Analysis was performed with Genedata Screener (Compound Synergy Extension) to determine Synergy scores (Bliss model), using a formulation whereby the Blissexcess is a continuous value and values higher than 2 are usually considered synergistic, and values between 0 and 2 are usually considered additive.

## CN(C)CCCOc1ccc(-c2ccc3ncc4c(c3c2)n(C2CCOCC2)c(=O)n4C)cn1 [AZD0156]
  Combination effect with MSC778: no benefit was observed

Reference: publication PMC12684391, “Mechanistic insights into the monotherapy and combination potential of FEN1 inhibition in cancer therapy” (Nucleic Acids Research, 2025)
